Results taken from patent US11345702B1 (Myoforte Therapeutics, Inc., priority 2020, dated 2022).

Chains of the proteins cited; added tags and fusions are not shown.
UniProt P15428, whole entry: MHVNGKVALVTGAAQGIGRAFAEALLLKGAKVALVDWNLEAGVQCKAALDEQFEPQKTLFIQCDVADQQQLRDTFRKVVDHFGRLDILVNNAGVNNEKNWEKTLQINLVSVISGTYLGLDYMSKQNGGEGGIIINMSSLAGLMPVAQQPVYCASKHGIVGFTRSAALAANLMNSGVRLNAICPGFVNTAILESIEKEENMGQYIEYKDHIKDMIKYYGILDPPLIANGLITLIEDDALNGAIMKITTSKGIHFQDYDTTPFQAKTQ

Tests used:
15-PGDH/HPGD = 15-PGDH/HPGD (Homo sapiens (Human), UniProt P15428); experiment: hPGDH inhibitor screening biochemical assay; details: read-out: hPGDH: Average IC50
Procedure: A hydroxyprostaglandin dehydrogenase inhibition screening biochemical assay can be performed to assess the synthesized inhibitors provided herein. Provided herein is an exemplary biochemical assay for hPGDH inhibitor screening.
The in vitro biochemical assay can be performed in white, 384 plates in total 20 μl reaction volume consisting of 10 nM of 15-PGDH/HPGD (R&D System #5660-DH), 15 μM Prostaglandin E2 (Sigma, Cat #P5640-10MG) and 0.25 mM (3-Nicotinamide adenine dinucleotide sodium salt (Sigma, Cat #N0632-5G) made in reaction buffer (50 mM Tris-HCl, pH 7.5, 0.01% Tween 20) at 10-point dose response curve for test/tool compounds. Briefly, 5 μl (4×) of compounds solution and 5 μl (final concentration, 10 nM) of enzyme solution is added to white 384 well plates and incubated for 10 mins at 37° C. 5 μl (4×) of Prostaglandin E2 and 5 μl (4×) of β-Nicotinamide adenine dinucleotide sodium salt is added to the wells and incubated for 10 mins at room temperature. Fluorescence is recorded at ex/em=340 nm/485 nm. The percentage (%) inhibition of enzyme activity was determined relative to positive control (1% DMSO) and IC50 was calculated using GraphPad prism software (four parameter-variable slope equation).

Solubility at pH 7.4 = format: physicochemical; details: 6-5 ring core

SMILES | IC50 (15-PGDH/HPGD) | Solubility at pH 7.4 (μM) (Solubility at pH 7.4)
O=C(NC1CCS(=O)(=O)CC1)c1ccc(-n2ccc3cc(C(=O)N4CCC(F)(F)CC4)cnc32)cc1 | < 100 nM | –
CCOC(=O)c1nc2cc(C(=O)N3CCCCC3)ccc2n1-c1cccc(Cl)c1 [MF-PGDH-027, ethyl 1-(3-chlorophenyl)-5-(piperidine-1-carbonyl)-1H-benzo[d]imidazole-2-carboxylate] | – | 34 μM
